# Values quoted from earlier work, collected in PubChem BioAssay AID1811 (Shanghai Institute of Organic Chemistry, 2009).
# The other results are listed elsewhere or left out. Active and inactive are the calls of the source. Where no limit is named, active and inactive come without a cut-off here.
# Tested on: FK506 binding protein
# Experiment: PubChem AID 1811
# Details: PDB complex binding affinities from literature
compound,measurement,value
CO[C@H]1C[C@@H]2CC[C@@H](C)[C@@](O)(O2)C(=O)C(=O)N2CCCC[C@H]2C(=O)O[C@H]([C@H](C)C[C@@H]2CC[C@@H](O)[C@H](OC)C2)CC(=O)[C@H](C)/C=C(\C)[C@@H](O)[C@@H](OC)C(=O)[C@H](C)C[C@H](C)/C=C/C=C/C=C/1C,outcome,active
